Measured values as given in US9580464B2, “Anti-inflammatory proteins and peptides and methods of preparation and use thereof” (ManukaMed Limited, priority 2012, dated 2017).

Target: Cathepsin B from bovine spleen (Bos taurus, UniProt P07688)
Experiment: Assay for Cathepsin B activity / inhibition (Z-Lys-pNP substrate, absorbance 330 nm)
Type: biochemical

## Ac-KH-OH (N-terminal acetyl) [synthetic peptide derived from the C-terminus of MRJP5]
Table 5, peptides from C-terminus of MRJP5, 2 mM MGO-modified peptide
  Cathepsin B remaining activity (% of control): 115.95 ± 5.94
Table 5, peptides from C-terminus of MRJP5, 2 mM unmodified peptide
  Cathepsin B remaining activity (% of control): 230.49 ± 16.21

## Ac-KN-OH (N-terminal acetyl) [synthetic peptide derived from the C-terminus of MRJP2]
Table 2, peptides from C-terminus of MRJP2, 2 mM MGO-modified peptide
  Cathepsin B remaining activity (% of control): 111.84 ± 6.21
Table 2, peptides from C-terminus of MRJP2, 2 mM unmodified peptide
  Cathepsin B remaining activity (% of control): 149.55 ± 4.42

## Ac-KS-OH (N-terminal acetyl) [synthetic peptide derived from the C-terminus of MRJP4]
Table 4, peptides from C-terminus of MRJP4, 2 mM MGO-modified peptide
  Cathepsin B remaining activity (% of control): 110.69 ± 0.89
Table 4, peptides from C-terminus of MRJP4, 2 mM unmodified peptide
  Cathepsin B remaining activity (% of control): 135.26 ± 7.09

## Ac-SK-OH (N-terminal acetyl) [synthetic peptide derived from the C-terminus of MRJP3]
Table 3, peptides from C-terminus of MRJP3, 2 mM MGO-modified peptide
  Cathepsin B remaining activity (% of control): 115.94 ± 1.24
Table 3, peptides from C-terminus of MRJP3, 2 mM unmodified peptide
  Cathepsin B remaining activity (% of control): 137.62 ± 9.65
